## Ab-14 heavy chain CDR variants: yeast mating affinities

Values reported by Engelhart et al. 2022, doi:10.1038/s41597-022-01779-4 (FLAb copy).

Target: peptide PDVDLGDISGINAS, taken from heptad repeat 2 (HR2) of SARS-CoV-2 spike.

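The starting antibody came from a phage panning campaign against this peptide. In library AAYL49, one, two or three CDR residues were substituted; doubles and triples were drawn at random. The assay is AlphaSeq: two haploid yeast populations carry antibody and antigen on their surface. After mating in shaken culture at 30 °C for 16 h, diploids were selected and their barcode pairs sequenced. Read counts were normalised to the haploid input and turned into Kd by a linear fit to BCL2-family pairs of known affinity, for each replicate. Each pool was mated in three replicate cultures.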

Ab-14 is the parent antibody, in scFv form: VH, then a 15-residue (Gly4Ser)3 linker, then VL. The light chain is unchanged in all variants.
VH: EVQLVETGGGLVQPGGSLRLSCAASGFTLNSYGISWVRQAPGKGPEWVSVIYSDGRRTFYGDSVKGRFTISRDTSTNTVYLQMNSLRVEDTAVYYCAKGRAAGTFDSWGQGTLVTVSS
VL: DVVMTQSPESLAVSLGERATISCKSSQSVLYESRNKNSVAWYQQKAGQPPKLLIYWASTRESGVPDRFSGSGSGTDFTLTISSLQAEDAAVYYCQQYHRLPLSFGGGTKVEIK

The parent's heavy chain CDRs are GFTLNSYGIS, VIYSDGRRTFYGDSVK, GRAAGTFDS; each variant's own CDRs replace them letter for letter.
The read-out is the apparent dissociation constant on a log10 scale (nM): the lower, the stronger.
"nd" means that the variant was in the library but no mating with the target was seen in that replicate; the authors take this as a sign of poor binding, and no number exists.
Nonspecific signal, from three strains lacking the peptide, appeared in 15% of pairings of library AAYL49, centred on 4.06 (5% of these signals below 2.83); values are not corrected for it. For each scFv, signals with the empty controls are counted beside the result, with their mean in brackets.
For reference, the parent read 0.65 as the reference entry and 4.11 (one replicate of three) as a member of this library.

| # | CDR-H1 | CDR-H2 | CDR-H3 | log10 Kd (nM) by replicate | signal with controls |
|---|---|---|---|---|---|
| 1 | GFTLNSYGIL | VIYSDGRRTFYGDIVK | GRAKGTFDS | 3.92 2.48 5.20 | 2/9 (3.98) |
| 2 | GFTLNSYGIS | VIYSDGRRKFNGDSVK | QRAAGTFDS | nd nd nd | 2/9 (4.06) |
| 3 | GFTLNSYGIS | VIMSDGRRTNYGDSVK | GRAAGTFDE | nd 3.60 4.32 | 0/9 |
| 4 | GFTLNSYGCS | VIYSDGRRTFYGDSSK | GRAAGTQDS | nd nd nd | 0/9 |
| 5 | GFQLNSYMIS | VIYSDGRRTFYKDSVK | GRAAGTFDS | nd nd 3.55 | 0/9 |
| 6 | GFTLNSYGTS | VIYSDIRRTFYGDSVK | GRAAGTFDV | nd nd nd | 1/9 (2.61) |
| 7 | GFTANSYGIS | VIYSDGRRTFVGDSVK | GRAAGTFDL | nd nd nd | 0/9 |
| 8 | GFTLNSYGIA | VGCSDGRRTFYGDSVK | GRAAGTFDS | nd 3.02 nd | 1/9 (4.56) |
| 9 | GFTLNSYGTS | VIYSEGRRTFYGDSAK | GRAAGTFDS | nd nd nd | 1/9 (3.32) |
| 10 | CFTLNSYGIS | VSYSGGRRTFYGDSVK | GRAAGTFDS | nd nd nd | 0/9 |
| 11 | GFQLNSYGIS | VIYSDGRRTFYGDSCK | GRAAGTWDS | nd nd nd | 0/9 |
| 12 | GFTLNSYGIS | VIWRDFRRTFYGDSVK | GRAAGTFDS | nd nd nd | 1/9 (4.86) |
| 13 | GFTLNSWGIS | VIYSAGRRTFYGDSVK | GRAAGTKDS | nd nd nd | 0/9 |
| 14 | GFTFNSYGIS | VMYSDGRRTFYYDSVK | GRAAGTFDS | nd nd nd | 0/9 |
| 15 | GFTLNSYGIS | VIYSDGRRTFAGDSVK | GRAAGVFDS | 3.27 2.46 3.50 | 1/9 (2.30) |
| 16 | GFTLNHYGIS | VIYSDGRRTFYGQSVK | GRAAGTFWS | nd nd nd | 0/9 |
| 17 | GFTLNSYGIS | VAYSDGRWTFYGDSVK | GRAAGTFDS | nd nd nd | 0/9 |
| 18 | GFTLNSYGIS | SVYSDGRRTFYGDVVK | GRAAGTFDS | nd nd nd | 0/9 |
| 19 | GFSLNSYGIS | VIYIDGRRTFYGDSVK | GRNAGTFDS | nd 2.35 3.13 | 0/9 |
| 20 | GFTLNSYGIK | VIYSDGRRTFYGDSVK | GRAAGTFDR | nd nd nd | 0/9 |
| 21 | GFTLNSRGIS | VIYGDGRRTFYGDSVC | GRAAGTFDS | 3.50 nd nd | 4/9 (4.47) |
| 22 | GFTLNSYGIS | VIYSDGRRTFYHDSVK | GRAAGTFDS | 0.06 0.39 0.24 | 0/9 |
| 23 | VFTLNSYGIS | VIYSDGRRTFYGASVK | GRAAGTFDA | 4.13 nd 4.34 | 3/9 (3.87) |
| 24 | GFTLNSYGIS | VIYSDGRRTFYGDSYK | GRAAGTCDS | 3.94 3.92 4.65 | 7/9 (4.63) |
| 25 | GTTLNSYGIS | VIYSDGRRTFYGDSVK | GRALGTFDS | nd nd nd | 0/9 |
| 26 | GFFLNSYGIS | VIYSDGRRTFYGDNVK | GRAAGTFDS | 1.49 1.59 2.59 | 0/9 |
| 27 | GFTLNSYGIK | VIYSDGRRTFGGDSVK | GRAAGTRDS | nd nd 4.62 | 0/9 |
| 28 | GFTLASYGIG | VIYSDGRRTFYADSVK | GRAAGTFDS | nd nd nd | 1/9 (3.62) |
| 29 | GFTLNSYGIS | VLYSDGDRTPYGDSVK | GRAAGTFDS | nd nd nd | 2/9 (4.67) |
| 30 | GFTLNSYGIS | IIYSDGRRTFYRDSVK | GRAAGTFDS | 4.50 3.14 3.78 | 1/9 (4.54) |
| 31 | GFGLNPYGIS | VFYSDGRRTFYGDSVK | GRAAGTFDS | nd nd nd | 1/9 (4.49) |
| 32 | GFTLDSSGIS | VIYSDGRRTFYGDSVK | GRAAGTYDS | nd nd nd | 0/9 |
| 33 | GFTLNSMGIS | VIVSDGRRTFNGDSVK | GRAAGTFDS | 3.35 nd nd | 0/9 |
| 34 | GFTLNSYGIS | VIYSDGRRTFYGDSVP | GRAVGTFDW | nd nd nd | 0/9 |
| 35 | GFVLNSAGIS | VIYSDGRRTFYGDSVK | GRAAGTFDS | 3.11 2.60 2.84 | 0/9 |
| 36 | GFTLNSYGIS | VIYSDQRRTFYGDSVS | GRAAGTFDH | 4.36 3.87 nd | 2/9 (4.43) |
| 37 | GFTLNSYGIS | VIYSDGRRTFYGDPVK | GRAAGTFNL | nd nd nd | 0/9 |
| 38 | GFTLNSYGIS | VIYYDGRRTFYGDSVK | GIAAGTFDS | 2.39 2.01 1.88 | 2/9 (3.57) |
| 39 | GFTLNSYGIS | VIYSDGRRTFYGDSVC | QRAAETFDS | nd nd nd | 2/9 (3.54) |
| 40 | GFTLNSYGIS | VIYSNGRRTFYGDSVK | GRAAGTYDS | nd nd nd | 2/9 (3.73) |

For reference, 3 entries of the list once more:

CDR-H1	CDR-H2	CDR-H3	log10 Kd (nM) by replicate	signal with controls
GFTLNSYGIS	VIYSDGRRKFNGDSVK	QRAAGTFDS	nd nd nd	2/9 (4.06)
GFQLNSYMIS	VIYSDGRRTFYKDSVK	GRAAGTFDS	nd nd 3.55	0/9
GFTLNSYGIS	VIYSDGRRTFYGDSVP	GRAVGTFDW	nd nd nd	0/9